Results: patent US20140100156A1 (SANOFI, priority 2012, published 2014)

Amino acid sequences for entries named in this document (tags omitted). Residues count along the entry.
UniProt P43220, 24-463: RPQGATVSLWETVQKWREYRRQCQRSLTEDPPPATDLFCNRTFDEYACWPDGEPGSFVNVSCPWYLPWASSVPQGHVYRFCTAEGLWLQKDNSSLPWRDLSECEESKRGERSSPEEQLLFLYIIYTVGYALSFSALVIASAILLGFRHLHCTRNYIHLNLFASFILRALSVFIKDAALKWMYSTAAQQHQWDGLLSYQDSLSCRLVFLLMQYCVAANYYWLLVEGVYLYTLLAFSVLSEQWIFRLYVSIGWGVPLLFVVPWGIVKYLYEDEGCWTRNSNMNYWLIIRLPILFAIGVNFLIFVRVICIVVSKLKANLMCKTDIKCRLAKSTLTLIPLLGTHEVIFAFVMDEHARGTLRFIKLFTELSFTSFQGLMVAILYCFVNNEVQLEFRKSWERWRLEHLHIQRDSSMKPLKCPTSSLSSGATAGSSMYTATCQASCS
UniProt P47871, 26-477: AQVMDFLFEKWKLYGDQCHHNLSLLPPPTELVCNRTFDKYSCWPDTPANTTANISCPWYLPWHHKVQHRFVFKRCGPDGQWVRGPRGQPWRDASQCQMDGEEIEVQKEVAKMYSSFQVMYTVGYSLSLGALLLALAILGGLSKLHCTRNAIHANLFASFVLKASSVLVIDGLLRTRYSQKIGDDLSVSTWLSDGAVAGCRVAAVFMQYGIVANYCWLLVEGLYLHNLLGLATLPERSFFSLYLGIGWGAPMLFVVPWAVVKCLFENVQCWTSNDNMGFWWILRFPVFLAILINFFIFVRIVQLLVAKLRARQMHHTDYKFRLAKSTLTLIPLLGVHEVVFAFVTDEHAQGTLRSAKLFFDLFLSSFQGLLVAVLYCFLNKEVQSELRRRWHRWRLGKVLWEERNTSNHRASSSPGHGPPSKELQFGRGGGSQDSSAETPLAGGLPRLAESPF

Legend:
human GLP-1 receptor = target: T1, human GLP-1 receptor (Homo sapiens, UniProt P43220); experiment: cAMP response (HTRF) of HEK-293 cells stably expressing human GLP-1 receptor; type: cell-based; settings: Table 5; cAMP, HEK-293; read-out: EC50 hGLP-1R
T1 construct: expressed in transfected cells; host or cells: HEK-293

human glucagon receptor = target: T2, human glucagon receptor (Homo sapiens, UniProt P47871); experiment: cAMP response (HTRF) of HEK-293 cells stably expressing human glucagon receptor; type: cell-based; settings: Table 5; cAMP, HEK-293; read-out: EC50 hGlucagon-R
T2 construct: expressed in transfected cells; host or cells: HEK-293

CCCCCCCCCCCCCCCCCC(=O)N[C@@H](CCC(=O)NCCCC[C@H](NC(=O)[C@H](CCC(N)=O)NC(=O)[C@H](CCCCN)NC(=O)[C@H](CO)NC(=O)[C@H](CC(C)C)NC(=O)[C@H](CC(=O)O)NC(=O)[C@H](CO)NC(=O)[C@@H](NC(=O)[C@H](Cc1ccccc1)NC(=O)[C@@H](NC(=O)CNC(=O)[C@H](CCC(N)=O)NC(=O)C(C)(C)NC(=O)[C@@H](N)Cc1c[nH]cn1)[C@@H](C)O)[C@@H](C)O)C(=O)N[C@@H](CC(=O)O)C(=O)N[C@@H](CCC(=O)O)C(=O)N[C@@H](CCC(=O)O)C(=O)N[C@@H](C)C(=O)N[C@@H](C)C(=O)N[C@@H](CCCCN)C(=O)N[C@@H](CC(C)C)C(=O)N[C@@H](Cc1ccccc1)C(=O)N[C@H](C(=O)N[C@@H](CCC(=O)O)C(=O)N[C@@H](Cc1c[nH]c2ccccc12)C(=O)N[C@@H](CC(C)C)C(=O)N[C@@H](CCCCN)C(=O)N[C@@H](C)C(=O)NCC(=O)NCC(=O)N1CCC[C@H]1C(=O)N[C@@H](CO)C(=O)N[C@@H](CO)C(=O)NCC(=O)N[C@@H](C)C(=O)N1CCC[C@H]1C(=O)N1CCC[C@H]1C(=O)N1CCC[C@H]1C(=O)N[C@@H](CO)C(N)=O)[C@@H](C)CC)C(=O)O [compound 213]
pEC50 (human GLP-1 receptor): 11.57 | pEC50 (human glucagon receptor): 10.23

CCCCCCCCCCCCCCCCCC(=O)N[C@@H](CCC(=O)NCCCC[C@H](NC(=O)[C@H](CCC(N)=O)NC(=O)[C@H](CCCCN)NC(=O)[C@H](CO)NC(=O)[C@H](CC(C)C)NC(=O)[C@H](CC(=O)O)NC(=O)[C@H](CO)NC(=O)[C@@H](NC(=O)[C@H](Cc1ccccc1)NC(=O)[C@@H](NC(=O)CNC(=O)[C@H](CCC(N)=O)NC(=O)C(C)(C)NC(=O)[C@@H](N)Cc1c[nH]cn1)[C@@H](C)O)[C@@H](C)O)C(=O)N[C@@H](CC(=O)O)C(=O)N[C@@H](CCC(=O)O)C(=O)N[C@@H](CCC(=O)O)C(=O)N[C@@H](C)C(=O)N[C@@H](C)C(=O)N[C@@H](CCCNC(=N)N)C(=O)N[C@@H](CC(C)C)C(=O)N[C@@H](Cc1ccccc1)C(=O)N[C@H](C(=O)N[C@@H](CCC(=O)O)C(=O)N[C@@H](Cc1c[nH]c2ccccc12)C(=O)N[C@@H](CC(C)C)C(=O)N[C@@H](CCCCN)C(=O)N[C@@H](C)C(=O)NCC(=O)NCC(=O)N1CCC[C@H]1C(=O)N[C@@H](CO)C(=O)N[C@@H](CO)C(=O)NCC(=O)N[C@@H](C)C(=O)N1CCC[C@H]1C(=O)N1CCC[C@H]1C(=O)N1CCC[C@H]1C(=O)N[C@@H](CO)C(N)=O)[C@@H](C)CC)C(=O)O [compound 214]
pEC50 (human GLP-1 receptor): 11.38 | pEC50 (human glucagon receptor): 10.80

CCCCCCCCCCCCCCCCCC(=O)N[C@@H](CCC(=O)NCCCC[C@H](NC(=O)[C@H](CCC(N)=O)NC(=O)[C@H](CCCCN)NC(=O)[C@H](CO)NC(=O)[C@H](CC(C)C)NC(=O)[C@H](CC(=O)O)NC(=O)[C@H](CO)NC(=O)[C@@H](NC(=O)[C@H](Cc1ccccc1)NC(=O)[C@@H](NC(=O)CNC(=O)[C@H](CCC(N)=O)NC(=O)C(C)(C)NC(=O)[C@@H](N)Cc1c[nH]cn1)[C@@H](C)O)[C@@H](C)O)C(=O)N[C@@H](CCC(=O)O)C(=O)N[C@@H](CCC(=O)O)C(=O)N[C@@H](CCC(=O)O)C(=O)N[C@@H](C)C(=O)N[C@@H](C)C(=O)N[C@@H](CCCNC(=N)N)C(=O)N[C@@H](CC(C)C)C(=O)N[C@@H](Cc1ccccc1)C(=O)N[C@H](C(=O)N[C@@H](CCC(=O)O)C(=O)N[C@@H](Cc1c[nH]c2ccccc12)C(=O)N[C@@H](CC(C)C)C(=O)N[C@@H](CCCCN)C(=O)N[C@@H](C)C(=O)NCC(=O)NCC(=O)N1CCC[C@H]1C(=O)N[C@@H](CO)C(=O)N[C@@H](CO)C(=O)NCC(=O)N[C@@H](C)C(=O)N1CCC[C@H]1C(=O)N1CCC[C@H]1C(=O)N1CCC[C@H]1C(=O)N[C@@H](CO)C(N)=O)[C@@H](C)CC)C(=O)O [compound 215]
pEC50 (human GLP-1 receptor): 11.28 | pEC50 (human glucagon receptor): 10.37

CCCCCCCCCCCCCCCCCC(=O)N[C@@H](CCC(=O)NCCCC[C@H](NC(=O)[C@H](CCC(N)=O)NC(=O)[C@H](CCCCN)NC(=O)[C@H](CO)NC(=O)[C@H](CC(C)C)NC(=O)[C@H](CC(=O)O)NC(=O)[C@H](CO)NC(=O)[C@@H](NC(=O)[C@H](Cc1ccccc1)NC(=O)[C@@H](NC(=O)CNC(=O)[C@H](CCC(N)=O)NC(=O)C(C)(C)NC(=O)[C@@H](N)Cc1c[nH]cn1)[C@@H](C)O)[C@@H](C)O)C(=O)N[C@@H](CC(=O)O)C(=O)N[C@@H](CCC(=O)O)C(=O)N[C@@H](CCC(=O)O)C(=O)N[C@@H](C)C(=O)N[C@@H](C)C(=O)N[C@@H](CCCNC(=N)N)C(=O)N[C@@H](CC(C)C)C(=O)N[C@@H](Cc1ccccc1)C(=O)N[C@H](C(=O)N[C@@H](CCC(=O)O)C(=O)N[C@@H](Cc1c[nH]c2ccccc12)C(=O)N[C@@H](CC(C)C)C(=O)N[C@@H](CCCCN)C(=O)N[C@@H](C)C(=O)NCC(=O)NCC(=O)N1CCC[C@H]1C(=O)N[C@@H](CO)C(=O)N[C@@H](CO)C(=O)NCC(=O)N[C@@H](C)C(=O)N1CCC[C@H]1C(=O)N1CCC[C@H]1C(=O)N1CCC[C@H]1C(=O)N[C@@H](CO)C(N)=O)[C@@H](C)CC)C(=O)O [compound 216]
pEC50 (human GLP-1 receptor): 11.33 | pEC50 (human glucagon receptor): 10.71

CCCCCCCCCCCCCCCCCC(=O)N[C@@H](CCC(=O)NCCCC[C@H](NC(=O)[C@H](CCC(N)=O)NC(=O)[C@H](CCCCN)NC(=O)[C@H](CO)NC(=O)[C@H](CC(C)C)NC(=O)[C@H](CC(=O)O)NC(=O)[C@H](CO)NC(=O)[C@@H](NC(=O)[C@H](Cc1ccccc1)NC(=O)[C@@H](NC(=O)CNC(=O)[C@H](Cc1c[nH]cn1)NC(=O)C(C)(C)NC(=O)[C@@H](N)Cc1c[nH]cn1)[C@@H](C)O)[C@@H](C)O)C(=O)N[C@@H](CCC(=O)O)C(=O)N[C@@H](CCC(=O)O)C(=O)N[C@@H](CCC(=O)O)C(=O)N[C@@H](C)C(=O)N[C@@H](C)C(=O)N[C@@H](CCCNC(=N)N)C(=O)N[C@@H](CC(C)C)C(=O)N[C@@H](Cc1ccccc1)C(=O)N[C@H](C(=O)N[C@@H](CCC(=O)O)C(=O)N[C@@H](Cc1c[nH]c2ccccc12)C(=O)N[C@@H](CC(C)C)C(=O)N[C@@H](CCCCN)C(=O)N[C@@H](C)C(=O)NCC(=O)NCC(=O)N1CCC[C@H]1C(=O)N[C@@H](CO)C(=O)N[C@@H](CO)C(=O)NCC(=O)N[C@@H](C)C(=O)N1CCC[C@H]1C(=O)N1CCC[C@H]1C(=O)N1CCC[C@H]1C(=O)N[C@@H](CO)C(N)=O)[C@@H](C)CC)C(=O)O [compound 217]
pEC50 (human GLP-1 receptor): 11.37 | pEC50 (human glucagon receptor): 11.68

CCCCCCCCCCCCCCCCCC(=O)N[C@@H](CCC(=O)NCCCC[C@H](NC(=O)[C@H](CCC(N)=O)NC(=O)[C@H](CCCCN)NC(=O)[C@H](CO)NC(=O)[C@H](CC(C)C)NC(=O)[C@H](CC(=O)O)NC(=O)[C@H](CO)NC(=O)[C@@H](NC(=O)[C@H](Cc1ccccc1)NC(=O)[C@@H](NC(=O)CNC(=O)[C@H](Cc1c[nH]cn1)NC(=O)[C@@H](CO)NC(=O)[C@@H](N)Cc1c[nH]cn1)[C@@H](C)O)[C@@H](C)O)C(=O)N[C@@H](CCC(=O)O)C(=O)N[C@@H](CCC(=O)O)C(=O)N[C@@H](CCC(=O)O)C(=O)N[C@@H](C)C(=O)N[C@@H](C)C(=O)N[C@@H](CCCNC(=N)N)C(=O)N[C@@H](CC(C)C)C(=O)N[C@@H](Cc1ccccc1)C(=O)N[C@H](C(=O)N[C@@H](CCC(=O)O)C(=O)N[C@@H](Cc1c[nH]c2ccccc12)C(=O)N[C@@H](CC(C)C)C(=O)N[C@@H](CCCCN)C(=O)N[C@@H](C)C(=O)NCC(=O)NCC(=O)N1CCC[C@H]1C(=O)N[C@@H](CO)C(=O)N[C@@H](CO)C(=O)NCC(=O)N[C@@H](C)C(=O)N1CCC[C@H]1C(=O)N1CCC[C@H]1C(=O)N1CCC[C@H]1C(=O)N[C@@H](CO)C(N)=O)[C@@H](C)CC)C(=O)O [compound 219]
pEC50 (human GLP-1 receptor): 11.68 | pEC50 (human glucagon receptor): 11.43

CCCCCCCCCCCCCCCCCC(=O)N[C@@H](CCC(=O)NCCCC[C@H](NC(=O)[C@H](CCC(N)=O)NC(=O)[C@H](CCCCN)NC(=O)[C@H](CO)NC(=O)[C@H](CC(C)C)NC(=O)[C@H](CC(=O)O)NC(=O)[C@H](CO)NC(=O)[C@@H](NC(=O)[C@H](Cc1ccccc1)NC(=O)[C@@H](NC(=O)CNC(=O)[C@H](Cc1c[nH]cn1)NC(=O)[C@@H](CO)NC(=O)[C@@H](N)Cc1c[nH]cn1)[C@@H](C)O)[C@@H](C)O)C(=O)N[C@@H](CC(=O)O)C(=O)N[C@@H](CCC(=O)O)C(=O)N[C@@H](CCC(=O)O)C(=O)N[C@@H](C)C(=O)N[C@@H](C)C(=O)N[C@@H](CCCNC(=N)N)C(=O)N[C@@H](CC(C)C)C(=O)N[C@@H](Cc1ccccc1)C(=O)N[C@H](C(=O)N[C@@H](CCC(=O)O)C(=O)N[C@@H](Cc1c[nH]c2ccccc12)C(=O)N[C@@H](CC(C)C)C(=O)N[C@@H](CCCCN)C(=O)N[C@@H](C)C(=O)NCC(=O)NCC(=O)N1CCC[C@H]1C(=O)N[C@@H](CO)C(=O)N[C@@H](CO)C(=O)NCC(=O)N[C@@H](C)C(=O)N1CCC[C@H]1C(=O)N1CCC[C@H]1C(=O)N1CCC[C@H]1C(=O)N[C@@H](CO)C(N)=O)[C@@H](C)CC)C(=O)O [compound 220]
pEC50 (human GLP-1 receptor): 11.70 | pEC50 (human glucagon receptor): 11.64

CCCCCCCCCCCCCCCC(=O)N[C@@H](CCC(=O)NCCCC[C@H](NC(=O)[C@H](CCC(N)=O)NC(=O)[C@H](CCCCN)NC(=O)[C@H](CO)NC(=O)[C@H](CC(C)C)NC(=O)[C@H](CC(=O)O)NC(=O)[C@H](CO)NC(=O)[C@@H](NC(=O)[C@H](Cc1ccccc1)NC(=O)[C@@H](NC(=O)CNC(=O)[C@H](CCC(N)=O)NC(=O)[C@@H](CO)NC(=O)[C@@H](N)Cc1c[nH]cn1)[C@@H](C)O)[C@@H](C)O)C(=O)N[C@@H](CC(=O)O)C(=O)N[C@@H](CCC(=O)O)C(=O)N[C@@H](CCC(=O)O)C(=O)N[C@@H](C)C(=O)N[C@@H](C)C(=O)N[C@@H](CCCNC(=N)N)C(=O)N[C@@H](CC(C)C)C(=O)N[C@@H](Cc1ccccc1)C(=O)N[C@H](C(=O)N[C@@H](CCC(=O)O)C(=O)N[C@@H](Cc1c[nH]c2ccccc12)C(=O)N[C@@H](CC(C)C)C(=O)N[C@@H](CCCCN)C(=O)N[C@@H](C)C(=O)NCC(=O)NCC(=O)N1CCC[C@H]1C(=O)N[C@@H](CO)C(=O)N[C@@H](CO)C(=O)NCC(=O)N[C@@H](C)C(=O)N1CCC[C@H]1C(=O)N1CCC[C@H]1C(=O)N1CCC[C@H]1C(=O)N[C@@H](CO)C(N)=O)[C@@H](C)CC)C(=O)O [compound 221]
pEC50 (human GLP-1 receptor): 11.82 | pEC50 (human glucagon receptor): 11.04

pEC50: −log10 of the molar value.
